Source: patent publication US7041785B1, “B1-bradykinin receptor antagonists and use thereof” (Université de Sherbrooke, priority 1996, dated 2006)

Target: T1, B1 receptor (Oryctolagus cuniculus, UniProt P48748)
T1 sequence (P48748 1-352): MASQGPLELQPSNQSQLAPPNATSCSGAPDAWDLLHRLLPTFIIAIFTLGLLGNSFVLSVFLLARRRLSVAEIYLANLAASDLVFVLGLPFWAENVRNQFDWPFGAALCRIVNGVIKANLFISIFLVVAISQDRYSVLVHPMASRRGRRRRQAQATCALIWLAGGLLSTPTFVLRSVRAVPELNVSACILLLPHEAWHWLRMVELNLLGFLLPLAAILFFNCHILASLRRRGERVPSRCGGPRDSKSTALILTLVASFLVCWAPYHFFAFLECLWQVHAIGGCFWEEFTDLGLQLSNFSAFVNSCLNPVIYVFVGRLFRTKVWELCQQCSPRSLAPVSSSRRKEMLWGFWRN
Assay: cell-based
Settings: Rb.A. pA2, apparent affinity as antagonist vs desArg9BK; antagonist applied 10 min before; Inactive = no detectable antagonistic effect at ≦ 10 μg/ml
From the text: Tissues were taken from New Zealand white rabbits (1.5–2.5 kg) and Dunken Hartley guinea pigs (250–350 g) of either sex, killed by stunning and exsanguination. Umbilical cords were taken from healthy women 22–40 years old after spontaneous delivery at term. The rabbit jugular vein (RbJV), the guinea pig ileum (GPI), two preparations containing B2 receptors, the rabbit aorta (RbA) (B1 receptor) and the human umbilical vein (HUV), a mixed preparation containing both B1 and B2 receptors^10, were used. Helical strips of RbJV treated with 1 μmol/L of captopril to avoid peptide degradation by the angiotensin-converting enzyme (ACE), alias kininase II were prepared according to Gaudreau et al.^11 Helical strips of RbA devoid of endothelium were prepared according to Furchgott and Bhadrakom^12. Longitudinal segments of GPI were prepared with the procedure described by Rang^13. Helical strips of HUV were prepared according to Gobeil et al.^10. […] Changes of tension produced by the various agents were measured with Grass isometric transducers (model FT 03C, Grass Instrument Co., Quincy, Mass.). […] Before testing the drugs, the tissues were allowed to equilibrate for 60–120 min during which time the tissues were repeatedly washed and the tension readjusted every 15 min. […]

With CC(C)C[C@H](NC(=O)[C@@H]1CCCN1C(=O)[C@H](CO)NC(=O)[C@H](Cc1ccccc1)NC(=O)CNC(=O)[C@@H]1CCCN1C(=O)[C@@H]1CCCN1C(=O)[C@H](CCCN=C(N)N)NC(=O)[C@@H](N)CCCCN)C(=O)O [Compound 2, Lys(Leu^8)desArg^9BK, reference compound] as the compound, how does the Kb read?
Its Kb is 3.55 nM.
